Experimental findings from patent US6239146A, “Neurotrophic difluoroamide agents” (Bristol-Myers Squibb Company, priority 2000, dated 2001) are described below.

Sequences of proteins named here, by UniProt entry; tags and fusion partners are left off.
UniProt P62942, whole entry, species assumed: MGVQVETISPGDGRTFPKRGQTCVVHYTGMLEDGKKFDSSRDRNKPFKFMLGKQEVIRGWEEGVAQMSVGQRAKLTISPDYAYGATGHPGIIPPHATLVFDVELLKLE

The target in this assay is FKBP12 (Homo sapiens, UniProt P62942). Briefly: FKBP12 Rotamase Inhibition Assay. The class given is biochemical. The note with it: read-out: Percent Inhibition at 10 μM (rotamase).

Structures are written as SMILES.

As usually defined, the inhibition is the change of the read-out against control, counted positive when it falls. As for `COc1cc(C(F)(F)C(=O)N2CCC[C@H]2C(=O)OCCCc2cccnc2)cc(OC)c1OC` [Example 2], the inhibition at 10 µM amounted to 97%.
